Like-named read-outs stand apart in the source and are kept apart here.
Target: Beta Secretase enzyme (BACE) (Homo sapiens, UniProt P56817)
Test: In vitro enzymatic BACE FRET (fluorescence resonance energy transfer) assay
Assay type: biochemical
Conditions: average IC50, enzyme assay

By UniProt entry, the sequences of proteins in these tests, tags left out. Residues count along the entry.
UniProt P56817, 46-501, species assumed: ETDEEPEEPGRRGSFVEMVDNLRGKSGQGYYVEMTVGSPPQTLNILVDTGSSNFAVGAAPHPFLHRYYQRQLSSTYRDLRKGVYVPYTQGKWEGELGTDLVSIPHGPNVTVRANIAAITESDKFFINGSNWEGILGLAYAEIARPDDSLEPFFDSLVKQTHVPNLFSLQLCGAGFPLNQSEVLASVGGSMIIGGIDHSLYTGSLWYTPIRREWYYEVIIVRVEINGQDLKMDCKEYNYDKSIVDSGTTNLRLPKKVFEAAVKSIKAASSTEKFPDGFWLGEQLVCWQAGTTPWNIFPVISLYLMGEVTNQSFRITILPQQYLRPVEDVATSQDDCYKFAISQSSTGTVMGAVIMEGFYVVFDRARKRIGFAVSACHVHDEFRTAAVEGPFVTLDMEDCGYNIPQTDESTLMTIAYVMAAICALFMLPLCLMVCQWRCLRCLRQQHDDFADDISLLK

IC50 (read-out: BACE 1 FRET assay) | Compound | IC50 (BACE 1 FRET assay (uM))
 | NC1=N[C@@]2(CO1)c1cc(-c3cccnc3F)ccc1Oc1cnc([C@H]3CCCCO3)cc12 [Example 375, (5S)-7-(2-fluoro-3-pyridinyl)-3-((2R)-tetrahydro-2H-pyran-2-yl)spiro[chromeno[2,3-c]pyridine-5,4′-[1,3]oxazol]-2′-amine] | 0.0022 µM
 | NC1=N[C@@]2(CO1)c1cc(-c3cccnc3F)ccc1Oc1cnc([C@@H]3CCCCO3)cc12 [Example 374, (5S)-7-(2-fluoro-3-pyridinyl)-3-((2S)-tetrahydro-2H-pyran-2-yl)spiro[chromeno[2,3-c]pyridine-5,4′-[1,3]oxazol]-2′-amine] | 0.0185 µM
 | NC1=N[C@@]2(CO1)c1cc(-c3cccnc3F)ccc1Oc1cnc(N3CC[C@H](F)C3)cc12 [Example 133, (S)-7-(2-fluoropyridin-3-yl)-3-((S)-3-fluoropyrrolidin-1-yl)-5′H-spiro[chromeno[2,3-c]pyridine-5,4′-oxazol]-2′-amine] | 0.0027 µM
 | NC1=N[C@@]2(CO1)c1cc(-c3cccnc3F)ccc1Oc1cnc(N3CC[C@@H](F)C3)cc12 [Example 416, (5S)-7-(2-fluoro-3-pyridinyl)-3-((3R)-3-fluoro-1-pyrrolidinyl)spiro[chromeno[2,3-c]pyridine-5,4′-[1,3]oxazol]-2′-amine] | 0.0005 µM
0.0175 µM | NC1=N[C@]2(CS1)c1cc(-c3cccnc3F)ccc1Oc1c2cc(-c2ccnc(F)c2)nc1F [Example 997, (5R)-1-fluoro-7-(2-fluoro-3-pyridinyl)-3-(2-fluoro-4-pyridinyl)spiro[chromeno[2,3-c]pyridine-5,4′-[1,3]thiazol]-2′-amine] | 

Reference: patent US8883782B2, “Spiro-tetracyclic ring compounds as beta-secretase modulators and methods of use” (Amgen Inc., priority 2010, dated 2014)
